Each structure is given as a SMILES string. The list shows a part of the results, in another mix than the full data. Records with an inconclusive call do not appear. Activity calls are given as the source filed them. Calls come from the whole dose curve; as a rule, active = well fitted activation curve with a large enough effect; inconclusive = small, poorly fitted or top-dose-only effect; inactive = no such curve, though single readings can be large or run the other way.

The assay is described as follows: qHTS Assay for Enhancers of SMN2 Splice Variant Expression. Note: % of control where 0% means no effect; nearly all actives have a fitted effect of over 55% in size. The following applies: HEK293 SMN2-luciferase splicing reporter, luminescence, 30-36 h; at 46.1 µM (top of the series) unless noted.
As for `O=C(OC1CN2CCC1CC2)C1c2ccccc2Oc2ccccc21` (stereo not drawn), the activity change, positive = activation is inactive: 5.3%.
`CCOC(=O)N1CCC(Nc2ccc(OC)cc2)CC1`: the activity change, positive = activation is inactive: 4.73%.
For `O=C(NCC1(N2CCOCC2)CCCCC1)c1cc2ccccc2o1` the value was inactive: -7.6%; for `COc1ccc(C(=O)NCC2(N3CCCCC3)CCCCC2)c(OC)c1OC`, inactive: -12.6%.
As for `COc1ccc(NC2CCN(CCc3ccccc3)CC2)c(OC)c1`, the figure is inactive: -8.21%; as for `O=C(NCC1(N2CCOCC2)CCCCC1)c1cc(=O)[nH]c2ccccc12`, inactive: 1.64%.
For `CN1CCN(CCOC(=O)C(O)(c2ccccc2)c2ccccc2)CC1` the value was inactive: -1.58%.
For the compound `COc1ccc(NC2CCN(C(=O)OC(C)(C)C)CC2)cc1`, the activity change, positive = activation is inactive: -24.8%.
In the case of `O=[N+]([O-])c1cc([N+](=O)[O-])c(NCC2CCS(=O)(=O)C2)c([N+](=O)[O-])c1` (stereo not drawn), the activity change, positive = activation is inactive: -3.85%.
For `O=C(NCC1(N2CCCCC2)CCCCC1)c1cccc([N+](=O)[O-])c1` the value was inactive: -5.08%.
For `NC1CCCCC1.NP(=O)(O)N(CCCl)CCCl` the value was inactive: -3.02% [at 9.22 µM]; for `CCOP(=O)(Cl)Cl`, inactive: -0.123%; for `CC(C)c1ccc(NC2CCN(C(=O)OC(C)(C)C)CC2)cc1`, inactive: -15.9%.
As for `CN(C)c1cccc(C(=O)NCC2(N3CCCCC3)CCCCC2)c1`, the figure is inactive: 24.7%; as for `O=C(OC1CN2CCC1CC2)C1c2ccccc2C=Cc2ccccc21` (stereo not drawn), inactive: -3.53%; as for `N/C(=N\O)c1c(N)no[n+]1[O-]`, inactive: -14.9%.
`COc1ccc(C(=O)NCC2(N3CCOCC3)CCCCC2)cc1OC`: the activity change, positive = activation was inactive: -9.92%.
For `ClCCOP(OCCCl)OCCCl` the value was inactive: -5.22%.
For `c1ccc(CN2CCC(Nc3ccccc3)CC2)cc1` the value was inactive: -14.5%; for `N#Cc1ccc(C(=O)NCC2(N3CCCCC3)CCCCC2)cc1`, inactive: 1.33%; for `CN(C)c1ccc(C(=O)NCC2(N3CCCCC3)CCCCC2)cc1`, inactive: 4.43%.
For `CCN1CCC(Nc2cccc(F)c2)CC1`, the activity change, positive = activation is inactive: -6%.
For the compound `Fc1ccccc1NC1CCN(Cc2ccccc2)CC1`, the activity change, positive = activation was inactive: 8.17%.
With `COc1cc(OC)cc(C(=O)NCC2(N3CCOCC3)CCCCC2)c1`, the activity change, positive = activation was inactive: 8.03%.
As for `CCC(CO)(C(=O)OC1CN2CCC1CC2)c1ccccc1` (stereo not drawn), the figure is inactive: -7.02%; as for `O=C(O)C1(Nc2ccccc2)CCN(Cc2ccccc2)CC1`, inactive: -16.9% [at 9.22 µM]; as for `CC(C)(C)OC(=O)N1CCC(Nc2ccccc2)CC1`, inactive: -7.2%.
Regarding `CCOc1ncccc1C(=O)NCC1(N2CCOCC2)CCCCC1`, the activity change, positive = activation is inactive: 18%.
